Here are results for 1 substance from patent US20110171294A1, “Enzyme composition and application thereof in the treatment of pancreatic insufficiency” (DSM IP ASSETS B.V., priority 2008, published 2011).

In the assay the test system is Sodium caseinate. Kind of assay: Casein hydrolysis under simulated stomach conditions (visual impression, di-/tripeptides, free amino acids). Type of assay: biochemical. The following applies: pH 4.0, 37 degrees C. From the text:
To quantify the level of free amino acids in the supernatants of the casein hydrolysates prepared according the procedure outlined in Example 4, the following method was used. By applying the conventional UV detection for monitoring free amino acids after pre-column AccQ-Tag derivatization, a serious interference with small peptides occurs. In 2006, Waters (Milford Mass., US) introduced the AccQ-Tag®ultra method. In this method, 6-aminoquinolyl-N-hydroxysuccinimidyl carbamate (AQC) is used as a reagent for the quantitative conversion of primary and secondary amino acids into the corresponding carbamide derivatives. In our quantitative UPLC/tandem MS based method, pre-column AccQ-Tag®ultra ultra derivatization circumvents ion suppression effects from co-eluting endogeneous dipeptides. LC-MS/MS was applied for monitoring diagnostic ions of the free amino acid derivatives, i.e. the protonated carbamide derivative and one daughter ion (m/z 171), that result from the loss of the amino acid from the corresponding carbamide derivative. By monitoring the above-mentioned MS/MS transition, free amino acids are selectively monitored, also in the presence of peptides from the hydrolysate.
To measure the free amino acids in the supernatants of the casein hydrolysates prepared according to Example 4, the following protocol for sample preparation and derivatization was used. • Dissolve 40-300 mg of protein hydrolysate in 50 ml 0.1 N HCl • Transfer 100 μl of this solution into a vial • Add 100 ul of internal standard (IS) solution (containing 1 mg of each of isotope-labelled amino acids per 50 ml) • Mix vigorously • Transfer 10 μl of this sample/IS solution into a test tube • Add 70 μl borate buffer (from the Waters AccQ-Tag ultra reagent package) and mix • Add 20 μl reagent solution (from the Waters AccQ-Tag ultra reagent package) and mix immediately • Transfer the derivative solution to an injection vial • Heat the vial at 55° C. for 10 minutes and mix • Inject 1 μl into the UPLC system.
Subsequent UPLC-MS/MS analyses were performed on an Ultra high-Pressure Liquid Chromatograph (UPLC) combined with a Xevo TQ mass spectrometer from Waters under the following conditions.
We determined total di- and tripeptides by quantitative LC/MS method in which we took advantage of a pre-column derivatization and exact mass analysis using a LTQ orbitrap mass spectrometer. […]
Using a wide variety of dipeptide standards, first the deviation of the proton affinity (expressed in peak area) was determined before/after derivatization. A total of 20 different dipeptides, selected on the basis of their hydrophobicities, were used and after subsequent derivatization and LC/MS analysis the peak area per pMole dipeptide was calculated. […]

Where [1] appears, read: supernatant after 90 minutes, 0.25 mg/ml of each enzyme.

“Pepsin: gastric aspartic endoprotease (EC 3.4.23.1) from porcine stomach mucosa, Sigma”: the “Weight % of soluble casein present in the form of either free amino acids, di- or tri-peptides” value (sum of Tables 3 and 4, 90 minutes) was 10.5 Weight %. For the same substance, under setting [1], the “Weight % of soluble casein present in the form of free amino acids” value is on record as 0.94 Weight %, the “Weight % of soluble casein present in the form of: dipeptides” value is 1.0 Weight % and the “Weight % of soluble casein present in the form of: tripeptides” value was 8.6 Weight %.
